Results taken from patent US12233227B2, “Systems and methods of depositing drug into tissue through serrations” (CAGENT VASCULAR, INC., priority 2016, dated 2025).

Assay: Drug retention in the tissue wall of porcine vessels: Serranator or POBA pretreatment followed by drug coated balloon (DCB)

amount of PTX drug retained in the tissue wall (7 days post POBA followed by DCB (FIG. 28B)): 178.7 µg/mg
amount of PTX drug retained in the tissue wall (7 days post Serranator followed by DCB (FIG. 28B)): 479.2 µg/mg
Compound: CC(=O)O[C@H]1C(=O)[C@@]2(C)[C@H]([C@H](OC(=O)c3ccccc3)[C@]3(O)C[C@H](OC(=O)[C@H](O)[C@@H](NC(=O)c4ccccc4)c4ccccc4)C(C)=C1C3(C)C)[C@]1(OC(C)=O)CO[C@@H]1C[C@@H]2O [paclitaxel]
